Test results reported in patent EP4847025A1, “JOINT USE OF FAK INHIBITOR AND KRAS G12C INHIBITOR” (dated 2026).

What was measured:
CT26 cells = assay: Cell proliferation IC50 previously detected on CT26 cells; conditions: single agent
Protocol: The IC50s of AMP945 and Defactinib previously detected on CT26 cells were 6.2 µM and 6.9 µM, respectively. Therefore, the ¼IC50 for AMP945 in this experiment was 1.55 µM, and the ¼IC50 for Defactinib was 1.72 µM. Table 2: Grouping scheme for NCI-H358 cell proliferation inhibition assay

NCI-H2122 cells = assay: IC50 of FAK inhibitor used to set the ¼IC50 concentration in the NCI-H2122 proliferation assay; conditions: single agent; stated in legends of FIG. 6 / FIG. 7 (NCI-H2122 cells); cell line of the IC50 not explicitly stated
Protocol: • FIG. 1 depicts the effect of different concentrations of KRAS G12C inhibitor in combination with AMP945 on the proliferation of NCI-H2122 cells. Three different drug concentrations were selected for KRAS G12C inhibitor: 10 µM, 2 µM, and 0.4 µM. A fixed concentration of ¼IC50 was selected for AMP945. • FIG. 2 depicts the effect of different concentrations of KRAS G12C inhibitor in combination with Defactinib on the proliferation of NCI-H2122 cells. Three different drug concentrations were selected for KRAS G12C inhibitor: 10 µM, 2 µM, and 0.4 µM. A fixed concentration of ¼IC50 was selected for Defactinib. • FIG. 3 depicts the effect of different concentrations of KRAS G12C inhibitor in combination with AMP945 on the proliferation of NCI-H358 cells. Three different drug concentrations were selected for KRAS G12C inhibitor: 10 µM, 0.016 µM, and 0.0032 µM. A fixed concentration of ¼IC50 was selected for AMP945. • FIG. 4 depicts the effect of different concentrations of KRAS G12C inhibitor in combination with Defactinib on the proliferation of NCI-H358 cells. Three different drug concentrations were selected for KRAS G12C inhibitor: 10 µM, 0.016 µM, and 0.0032 µM. […]

Row | Compound | IC50 (CT26 cells) [µM] | IC50 (NCI-H2122 cells) [µM]
1 | COc1cc(C2CCN(C)CC2)ccc1Nc1ncc(C(F)(F)F)c(CCc2ccccc2CC(N)=O)n1 | 6.2 | –
2 | Cc1cc(Nc2ncc(Cl)c(Nc3ccccc3S(=O)(=O)C(C)C)n2)c(OC(C)C)cc1C1=CCN(C2CCOCC2)CC1 | – | 3.5
3 | COc1cc(N2CCC(N3CCN(C)CC3)CC2)ccc1Nc1nc2c(c(Nc3ccccc3S(=O)(=O)NC(C)C)n1)CCN2 | – | 7
